Assay results: article PMC4435547 (The journal of maternal-fetal & neonatal medicine : the …, 2009)
Where two headings read alike, the source gives them in different places.

Experiments:
human serum albumin = conditions: cited from earlier work
[1] = test system: dually perfused human placental lobule; conditions: for amount of BUP in the fetal circuit / amount of BUP remaining in the maternal circuit / amount of BUP retained by placental tissue: after 4 hours perfusion; for Buprenorphine concentration, fetal circuit / Buprenorphine concentration, maternal circuit: last hour of perfusion
gamma-globulin = conditions: cited from earlier work
alpha-acid glycoprotein = conditions: cited from earlier work
P-glycoprotein = conditions: cited from earlier work
[2] = in presence of HSA 30 mg/mL (n=5)
[3] = in presence of combination of HSA & AAG (n=7)

## Buprenorphine
Human serum albumin
  binding ratio: 65.6%
[1]; AAG added to both circuits
  amount of BUP in the fetal circuit: 14 ± 2%
  amount of BUP remaining in the maternal circuit: 31 ± 7%
  amount of BUP retained by placental tissue: 55 ± 8%
[1]; HSA added to both circuits
  amount of BUP in the fetal circuit: 14 ± 3%
  amount of BUP remaining in the maternal circuit: 25 ± 5%
  amount of BUP retained by placental tissue: 61 ± 8%
[1]; either protein or combination of HSA and AAG, P<.001
  amount of BUP in the fetal circuit versus absence of proteins: higher amounts
[1]; in absence of plasma proteins (n=9), end of 4 hours' perfusion
  Buprenorphine Fetal/Maternal concentration ratio: 0.43 ± 0.14
[1]; in absence of plasma proteins (n=9)
  Buprenorphine concentration, fetal circuit: 0.9 ± 0.2 ng/mL
[1]; in absence of plasma proteins (n=9), 10 ng/mL initial
  Buprenorphine concentration, maternal circuit: 2.2 ± 0.2 ng/mL
[1]; in absence of plasma proteins
  amount of BUP in the fetal circuit: 9 ± 3%
  amount of BUP remaining in the maternal circuit: 23 ± 3%
  amount of BUP retained by placental tissue: 68 ± 4%
[1]; in presence of AAG 0.6 mg/mL maternal, 0.24 mg/mL fetal (n=4), end of perfusion
  Buprenorphine Fetal/Maternal concentration ratio: 0.47 ± 0.08
[1]; in presence of HSA 30 mg/mL (n=5), end of 4 hours' perfusion
  Buprenorphine Fetal/Maternal concentration ratio: 0.59 ± 0.06
[1]; in presence of HSA 30 mg/mL (n=5), end of 4 hours' perfusion, listed as BUP
  Buprenorphine Fetal/Maternal concentration ratio: 0.59 ± 0.06
[1]; [2]
  Buprenorphine concentration, fetal circuit: 1.5 ± 0.3 ng/mL
  Buprenorphine concentration, maternal circuit: 2.3 ± 0.5 ng/mL
[1]; in presence of combination of HSA & AAG (n=7), end of perfusion
  Buprenorphine Fetal/Maternal concentration ratio: 0.43 ± 0.12
[1]; [3]
  Buprenorphine concentration, fetal circuit: 1.5 ± 0.2 ng/mL
  Buprenorphine concentration, maternal circuit: 3.3 ± 0.6 ng/mL
gamma-globulin
  binding ratio: 41.5%
alpha-acid glycoprotein
  binding ratio: 84.9%
P-glycoprotein
  substrate of efflux transporter P-glycoprotein: not a substrate
